Consider one molecule from ChEMBL document CHEMBL1133639, “Subtype-selective N-methyl-D-aspartate receptor antagonists: synthesis and biological evaluation of 1-(heteroarylalkynyl)-4-benzylpiperidines” (J Med Chem, 2000).

By UniProt entry, the sequences of proteins in these tests, tags left out. Where a name states a change or a piece, a line headed by the entry shows the natural chain unless it says otherwise.
UniProt Q14957: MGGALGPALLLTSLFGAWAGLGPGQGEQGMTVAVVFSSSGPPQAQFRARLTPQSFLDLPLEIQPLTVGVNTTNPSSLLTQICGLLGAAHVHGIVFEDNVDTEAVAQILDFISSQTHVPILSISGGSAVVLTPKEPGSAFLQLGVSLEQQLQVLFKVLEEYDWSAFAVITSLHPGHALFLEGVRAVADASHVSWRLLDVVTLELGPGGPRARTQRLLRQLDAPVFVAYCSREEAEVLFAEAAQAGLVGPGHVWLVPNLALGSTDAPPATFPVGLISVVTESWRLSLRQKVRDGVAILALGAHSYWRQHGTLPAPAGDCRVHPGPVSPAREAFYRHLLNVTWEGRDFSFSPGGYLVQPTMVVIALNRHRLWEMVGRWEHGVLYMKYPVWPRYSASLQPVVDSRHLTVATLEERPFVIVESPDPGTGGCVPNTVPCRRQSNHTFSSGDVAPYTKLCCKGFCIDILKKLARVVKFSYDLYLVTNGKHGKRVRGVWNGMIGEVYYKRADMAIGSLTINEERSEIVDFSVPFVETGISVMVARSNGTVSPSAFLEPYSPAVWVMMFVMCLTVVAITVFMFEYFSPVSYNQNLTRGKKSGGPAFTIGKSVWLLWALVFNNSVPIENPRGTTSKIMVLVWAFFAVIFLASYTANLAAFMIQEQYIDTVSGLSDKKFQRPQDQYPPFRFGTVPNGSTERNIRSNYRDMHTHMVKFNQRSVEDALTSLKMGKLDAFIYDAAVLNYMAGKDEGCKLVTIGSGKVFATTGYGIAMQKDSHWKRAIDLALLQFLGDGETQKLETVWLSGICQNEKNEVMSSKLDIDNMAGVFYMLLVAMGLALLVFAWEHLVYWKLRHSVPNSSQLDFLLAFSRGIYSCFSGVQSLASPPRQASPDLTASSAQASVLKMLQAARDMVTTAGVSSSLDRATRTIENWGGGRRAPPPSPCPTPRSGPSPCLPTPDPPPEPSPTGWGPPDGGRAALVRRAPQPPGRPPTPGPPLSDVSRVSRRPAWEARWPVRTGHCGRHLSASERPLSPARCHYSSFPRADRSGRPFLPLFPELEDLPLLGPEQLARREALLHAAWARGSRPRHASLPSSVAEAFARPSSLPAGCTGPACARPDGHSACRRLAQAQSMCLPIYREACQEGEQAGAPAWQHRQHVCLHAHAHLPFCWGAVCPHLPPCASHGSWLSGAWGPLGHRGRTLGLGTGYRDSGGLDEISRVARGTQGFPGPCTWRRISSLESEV

What all share (type): cell-based, Oocyte
The target in assay [1] is Glutamate receptor ionotropic, NMDA 1 (Homo sapiens, UniProt Q05586). Nature of the assay: Concentration required for 50% Inhibition of responses at cloned NR1A/2AB NMDA expressed in Xenopus oocytes.
The target of assay [2] is Glutamate receptor ionotropic, NMDA 1 (Homo sapiens, UniProt Q05586+Q14957). Nature of the assay: Concentration required for 50% Inhibition of responses at cloned NR1A/2C NMDA expressed in Xenopus oocytes.
Assay [3] has as its target Glutamate receptor ionotropic, NMDA 1 (Homo sapiens, UniProt Q05586+Q12879). Description: Concentration required for 50% Inhibition of responses at cloned NR1A/2A NMDA expressed in Xenopus oocytes.

The term pIC50 denotes the IC50 on a negative log10 scale, so that one unit is a factor of ten. Higher therefore signals a low IC50.

pIC50: −log10 of the molar value. Some results are limits rather than exact numbers.

Consider `O=c1[nH]c2ccc(C#CCN3CCC(Cc4ccccc4)CC3)cc2[nH]1`, for which the pIC50 is 8.28 in assay [1], less than 4.00 in assay [2] and 4.46 in assay [3].
